# Measurements taken from patent US6348445B1, “Biologically active peptides with reduced toxicity in animals and a method for preparing same” (priority 1992, dated 2002).
# How the values were obtained:
# [1] = MTD and LD50, single intraperitoneal administration; assay type: in vivo, mice; settings: for No. of Survivors Day 1 / No. of Survivors Day 2 / No. of Survivors Day 3 / No. of Survivors Day 4 / No. of Survivors Day 5 / No. of Survivors Day 6 / No. of Survivors Day 7 / No. of Survivors Day 8 / No. of Survivors Day 11: 4 injected
# Description: (§1) Determinations of a maximal tolerated dose (MTD) of a single intravenous (i.v.) administration or intraperitoneal (i.p.) administration of MSI-344 or MSI-1857 in 100 CD-1®BR mice were done. The MTD of a single intravenous (i.v.) administration was 10 mg/kg for MSI-344 and 60 mg/kg for MSI-1857. The MTD of a single intraperitoneal (i.p.) administration was less than 20 mg/kg for MSI-344 and between 50 and 100 mg/kg for MSI-1857.
# (§2) To determine estimates of MTDs and LD50s of MSI-344 and MSI-1857 administered intravenously or intraperitoneally as a single bolus in mice.
# (§3) A 5 mg/mL solution of MSI-344 was made in saline (0.9% sodium chloride injection USP, Abbott, North Chicago, Ill.) corrected for peptide content. Solutions of MSI-344 at concentrations of 4, 3, 2, 1.5, 1, and 0.5 mg/mL were made by diluting the 5 mg/mL solution using saline as diluent. (Errors were made in solution preparation of the 4, 3, and 2 mg/mL solutions and results from groups with animals doses with these solutions, i.e. groups 12, 13, and 14, were eliminated from study analysis). A 20 mg/mL solution of MSI-1857 was made in saline. Solutions of MSI-1857 at concentrations of 15, 10, 8, 6, and 5 mg/mL were made by diluting the 20 mg/mL solution using saline as diluent.
# (§4) Another 5 mg/mL solution of MSI-344 was made in saline corrected for peptide content. Solutions of 4, 3 and 2 mg/mL were made by diluting the 5 mg/mL solution using saline as diluent. A 15 mg/mL solution of MSI-1857 in saline was made corrected for peptide content. A 10 mg/mL solution was made by diluting the 15 mg/mL solution with saline.
# (§5) Mice (four mice per dose group) were intravenously or intraperitoneally administered a single bolus of MSI-344 or MSI-1857 using an injection volume of 10 mL/kg of the appropriate solution concentration. If the first two mice in a group died immediately (within 10 secs) after administration of a dose then no other mice injected with this dose of this compound (for ethical reasons). Survival was monitored daily for at least eight days post-administration. Study designs are presented in Tables IX and X. Toxicity Study # 262 was a supplement to Toxicity Study #261.
# [2] = MTD and LD50, single intravenous administration; assay type: in vivo, mice; settings: for No. of Survivors Day 1 / No. of Survivors Day 2 / No. of Survivors Day 3 / No. of Survivors Day 4 / No. of Survivors Day 5 / No. of Survivors Day 6 / No. of Survivors Day 7 / No. of Survivors Day 8: 4 injected
# Description: as §1, §2, §3, §4, §5
# [3] = Tox Study 262 group 6, 150 mg/kg IP
# [4] = Tox Study 262 group 7, 100 mg/kg IP
# [5] = Tox Study #261 group 15, 200 mg/kg IP
# [6] = Tox Study #261 group 16, 150 mg/kg IP
# [7] = Tox Study #261 group 17, 100 mg/kg IP
# [8] = Tox Study #261 group 18, 50 mg/kg IP
# [9] = Tox Study #261 group 6, 100 mg/kg IV
# [10] = Tox Study #261 group 7, 80 mg/kg IV
# [11] = Tox Study #261 group 8, 60 mg/kg IV
# [12] = Tox Study #261 group 9, 50 mg/kg IV
compound,measurement,setting,value
CC[C@H](C)[C@H](NC(=O)CNCS(=O)(=O)O)C(=O)NCC(=O)N[C@@H](CCCCNCS(=O)(=O)O)C(=O)N[C@@H](Cc1ccccc1)C(=O)N[C@@H](CC(C)C)C(=O)N[C@@H](CCCCNCS(=O)(=O)O)C(=O)N[C@@H](CCCCNCS(=O)(=O)O)C(=O)N[C@@H](C)C(=O)N[C@@H](CCCCNCS(=O)(=O)O)C(=O)N[C@@H](CCCCNCS(=O)(=O)O)C(=O)N[C@@H](Cc1ccccc1)C(=O)NCC(=O)N[C@@H](CCCCNCS(=O)(=O)O)C(=O)N[C@@H](C)C(=O)N[C@@H](Cc1ccccc1)C(=O)N[C@H](C(=O)N[C@@H](CCCCNCS(=O)(=O)O)C(=O)N[C@H](C(=O)N[C@@H](CC(C)C)C(=O)N[C@@H](CCCCNCS(=O)(=O)O)C(=O)N[C@@H](CCCCNCS(=O)(=O)O)C(=O)O)[C@@H](C)CC)C(C)C [MSI-1857],No. of Survivors Day 1,[1]; [3],1
same,No. of Survivors Day 2,[1]; [3],1
same,No. of Survivors Day 3,[1]; [3],1
same,No. of Survivors Day 4,[1]; [3],1
same,No. of Survivors Day 5,[1]; [3],1
same,No. of Survivors Day 6,[1]; [3],1
same,No. of Survivors Day 7,[1]; [3],1
same,No. of Survivors Day 8,[1]; [3],1
same,No. of Survivors Day 11,[1]; [3],1
same,No. of Survivors Day 1,[1]; [4],4
same,No. of Survivors Day 2,[1]; [4],4
same,No. of Survivors Day 3,[1]; [4],4
same,No. of Survivors Day 4,[1]; [4],4
same,No. of Survivors Day 5,[1]; [4],4
same,No. of Survivors Day 6,[1]; [4],4
same,No. of Survivors Day 7,[1]; [4],4
same,No. of Survivors Day 8,[1]; [4],4
same,No. of Survivors Day 11,[1]; [4],4
same,No. of Survivors Day 1,[1]; [5],0
same,No. of Survivors Day 2,[1]; [5],0
same,No. of Survivors Day 3,[1]; [5],0
same,No. of Survivors Day 4,[1]; [5],0
same,No. of Survivors Day 5,[1]; [5],0
same,No. of Survivors Day 6,[1]; [5],0
same,No. of Survivors Day 7,[1]; [5],0
same,No. of Survivors Day 8,[1]; [5],0
same,No. of Survivors Day 1,[1]; [6],1
same,No. of Survivors Day 2,[1]; [6],1
same,No. of Survivors Day 3,[1]; [6],1
same,No. of Survivors Day 4,[1]; [6],1
same,No. of Survivors Day 5,[1]; [6],1
same,No. of Survivors Day 6,[1]; [6],1
same,No. of Survivors Day 7,[1]; [6],1
same,No. of Survivors Day 8,[1]; [6],1
same,No. of Survivors Day 1,[1]; [7],4
same,No. of Survivors Day 2,[1]; [7],3
same,No. of Survivors Day 3,[1]; [7],3
same,No. of Survivors Day 4,[1]; [7],3
same,No. of Survivors Day 5,[1]; [7],3
same,No. of Survivors Day 6,[1]; [7],3
same,No. of Survivors Day 7,[1]; [7],3
same,No. of Survivors Day 8,[1]; [7],3
same,No. of Survivors Day 1,[1]; [8],4
same,No. of Survivors Day 2,[1]; [8],4
same,No. of Survivors Day 3,[1]; [8],4
same,No. of Survivors Day 4,[1]; [8],4
same,No. of Survivors Day 5,[1]; [8],4
same,No. of Survivors Day 6,[1]; [8],4
same,No. of Survivors Day 7,[1]; [8],4
same,No. of Survivors Day 8,[1]; [8],4
same,LD50,"[1]; mouse, in vivo, ip, CD-1 mice, estimated from dose response curves",120 mg/kg
same,MTD,"[1]; mouse, in vivo, ip, CD-1 mice, read-out: MTD of a single intraperitoneal (i.p.) administration",50 to 100 mg/kg
same,No. of Survivors Day 1,[2]; [9],0
same,No. of Survivors Day 2,[2]; [9],0
same,No. of Survivors Day 3,[2]; [9],0
same,No. of Survivors Day 4,[2]; [9],0
same,No. of Survivors Day 5,[2]; [9],0
same,No. of Survivors Day 6,[2]; [9],0
same,No. of Survivors Day 7,[2]; [9],0
same,No. of Survivors Day 8,[2]; [9],0
same,No. of Survivors Day 1,[2]; [10],1
same,No. of Survivors Day 2,[2]; [10],1
same,No. of Survivors Day 3,[2]; [10],1
same,No. of Survivors Day 4,[2]; [10],1
same,No. of Survivors Day 5,[2]; [10],1
same,No. of Survivors Day 6,[2]; [10],1
same,No. of Survivors Day 7,[2]; [10],1
same,No. of Survivors Day 8,[2]; [10],1
same,No. of Survivors Day 1,[2]; [11],4
same,No. of Survivors Day 2,[2]; [11],4
same,No. of Survivors Day 3,[2]; [11],4
same,No. of Survivors Day 4,[2]; [11],4
same,No. of Survivors Day 5,[2]; [11],4
same,No. of Survivors Day 6,[2]; [11],4
same,No. of Survivors Day 7,[2]; [11],4
same,No. of Survivors Day 8,[2]; [11],4
same,No. of Survivors Day 1,[2]; [12],4
same,No. of Survivors Day 2,[2]; [12],4
same,No. of Survivors Day 3,[2]; [12],4
same,No. of Survivors Day 4,[2]; [12],4
same,No. of Survivors Day 5,[2]; [12],4
same,No. of Survivors Day 6,[2]; [12],4
same,No. of Survivors Day 7,[2]; [12],4
same,No. of Survivors Day 8,[2]; [12],4
same,LD50,"[2]; mouse, in vivo, iv, CD-1 mice, estimated from dose response curves",73 mg/kg
same,MTD,"[2]; mouse, in vivo, iv, CD-1 mice, read-out: MTD of a single intravenous (i.v.) administration",60 mg/kg
same,fold increase in safety compared to MSI-344,[2]; single administration i.v. or i.p.,approximately 5 fold
